The values below come from US20260382572A1, “TREATMENT OF FRONTOTEMPORAL DEMENTIA OR FRONTOTEMPORAL LOBAR DEMENTIA” (published 2026).

Sequences of proteins named here, by UniProt entry; tags and fusion partners are left off. Residues count along the entry.
UniProt P35354, 18-604 limits assumed: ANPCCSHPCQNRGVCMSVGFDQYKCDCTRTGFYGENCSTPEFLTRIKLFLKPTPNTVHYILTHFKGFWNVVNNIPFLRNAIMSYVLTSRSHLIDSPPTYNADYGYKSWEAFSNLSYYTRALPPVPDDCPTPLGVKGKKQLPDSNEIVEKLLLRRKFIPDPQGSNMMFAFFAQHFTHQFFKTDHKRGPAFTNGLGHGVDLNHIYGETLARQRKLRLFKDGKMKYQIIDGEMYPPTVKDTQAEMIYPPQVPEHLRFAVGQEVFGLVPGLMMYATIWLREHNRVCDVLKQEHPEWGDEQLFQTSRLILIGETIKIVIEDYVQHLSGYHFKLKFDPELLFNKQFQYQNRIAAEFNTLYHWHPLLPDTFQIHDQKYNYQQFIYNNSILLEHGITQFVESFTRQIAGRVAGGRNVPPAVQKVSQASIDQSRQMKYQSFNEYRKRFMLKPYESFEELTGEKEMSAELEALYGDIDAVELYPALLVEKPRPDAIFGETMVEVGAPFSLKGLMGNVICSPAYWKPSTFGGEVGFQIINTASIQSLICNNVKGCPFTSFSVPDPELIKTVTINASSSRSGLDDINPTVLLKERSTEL

The test system of test [1] is tau seeding in HEK-293 tau FRET biosensor. Kind of test: Tau seeding assay in HEK-293 tau FRET biosensor (Tg4510 mouse brain homogenate). To be noted: increasing concentrations. The text has this:
FIG. 6. Compound 1 reduces hyperphosphorylated tau species and tau seeding in vitro. Compound 1 reduces hyperphosphorylated tau levels (AT8) in primary neuronal cultures of mice after 8 days of AVV-hTauP301L treatment. Dimethyl fumarate was used as a positive control (DMF). (A) Representative images, AT8 is shown in green and Map2, marker of neurons, is shown in white. […] Compound 1 reduced tau seeding in HEK-293 tau FRET biosensor measured by flow cytometer (C). Tg4510 mouse brain homogenate was used as aggregant stimuli. […] Data represent mean±SEM.
Tau seeding assay in HEK-293 was evaluated following a previously described protocol [Holmes et al. “Proteopathic tau seeding predicts tauopathy in vivo.” Proceedings of the National Academy of Sciences 2014, 111, E4376-E4385].
In a second set of experiments, HEK-293 FRET biosensor containing tau repeating domains was used to determine if Compound 1 could reduce tau aggregates. For this, cells were treated with Tg4510 mouse brain homogenate as an aggregant stimulus and co-incubated with increasing concentrations of the compound. Compound 1 was able to reduce tau seeding ability following a concentration dependent effect (FIG. 6C).

Test [2] deals with hyperphosphorylated tau (hTauP301L). The test can be described thus: hTauP301L FTD model, adult mice: hyperphosphorylated tau by immunofluorescence in hippocampus. Conditions: adult (3-4 months) mice; oral once a day 35 days; DG, CA1 and CA3; 50 mg/kg (FIG. 7). The method, then: FIG. 7. Compound 1 reduces hyperphosphorylated tau species in adult mice with hTauP301L tauopathy after 35 days oral administration (50 mg/kg/day). (A). Representative images of hyperphosphorylated tau intensity measured by AT8 and AT180 antibodies in three different regions of the hippocampus (GD, CA3 and CA1) (n=11-12). (B) Quantification AT8 intensity, normalized to CA3 intensity of Sham animals. (C) Quantification of AT180 intensity, normalized to CA3 intensity of Sham animals (n=9-12).
Immunofluorescence labelling in in vitro and in vivo samples was performed as described in [Luengo, Enrique et al. “Implication of type 4 NADPH oxidase (NOX4) in tauopathy.” Redox biology vol. 49 (2022): 102210. doi:10.1016/j.redox.2021.102210].
In vivo hTau301L model was induced by stereotaxic injection of AAV-hTauP301L (AAV-hTau) particles as described in [Luengo, Enrique et al. “Implication of type 4 NADPH oxidase (NOX4) in tauopathy.” Redox biology vol. 49 (2022): 102210. doi:10.1016/j.redox.2021.102210]. […]
(§1) Example 2.5. […] After 35 days treatment, hyperphosphorylated tau levels were evaluated by immunofluorescence and by WB in soluble and insoluble in sarkosyl fractions. […]
Hyperphosphorylated tau levels measured with the antibodies AT8 (p-Ser202/p-Thr205) and AT180 (p-Thr231) were analysed by immunofluorescence in fixed postmortem brain slices of treated mice (FIG. 7A).

The test system of test [3] is adult mice with hTauP301L tauopathy. The test can be described thus: hTauP301L FTD model, adult mice: T-maze. Conditions: 35 days. The method, then: FIG. 9. Compound 1 prevents cognitive decline in spatial memory behavioural paradigms in adult mice with hTauP301L tauopathy after 35 days oral administration (20 mg/kg or 50 mg/kg/day). (A) Representation of T-maze alternation test and (B) Object Location test (OLT). (C) Average percentage of success in seven independent attempts (n=14-19). (D) Discrimination index in the OLT assay (AAV-eGFP, n=15; AAV-hTau, n=10; AAV-hTau+Compound 1 at 20 mg/kg, n=5; AAV-hTau+Compound 1 at 50 mg/kg, n=8).
In vivo hTau301L model was induced by stereotaxic injection of AAV-hTauP301L (AAV-hTau) particles as described in [Luengo, Enrique et al. “Implication of type 4 NADPH oxidase (NOX4) in tauopathy.” Redox biology vol. 49 (2022): 102210. doi:10.1016/j.redox.2021.102210]. Control animals were injected with AAV-GFP. Evaluation of hyperphosphorylated tau in sarkosyl soluble and insoluble fractions; microgliosis; AT8 and AT180 by immunofluorescence; and cognitive test were performed as described previously [Luengo, Enrique et al. “Implication of type 4 NADPH oxidase (NOX4) in tauopathy.” Redox biology vol. […]
as §1
Spatial memory was measured using the T-maze (FIG. 9A) and the Object localization tests (OLT; FIG. 9B).

For test [4], the target named is human cyclooxygenase-2 (hCOX-2) (Homo sapiens, UniProt P35354). Kind of test: SafetyScreen44 panel: human cyclooxygenase-2. Conditions: read-out: IC50 (hCOX-2). The method, then: Example 3. Safety study with respect to Compound 1. Compound 1 was assayed in 44 different biological targets described as source of potential secondary effects, SafetyScreen44 panel (outsourced at Eurofins Discovery).

pIC50: −log10 of the molar value.

In the case of `COc1ccc2c(c1)CC(c1c[nH]c3ccc(OC)cc13)N2` (stereo not drawn), the tau seeding ability result in test [1] was “able to reduce tau seeding ability following a concentration dependent effect”. In test [2], the AT8 fluorescence entry is recorded as “significantly reduced” and the AT180 fluorescence entry is “significantly reduced”. Further, in test [3] (oral 20 mg/kg or 50 mg/kg), the “T-maze percentage of success” value was “dose-dependent improvement”. Moreover, the “T-maze percentage of success” value in test [3] (oral 50 mg/kg) is “total recovery was achieved”. In addition, in test [4], the negative logarithm of the IC50 (pIC50) is 6.59.
